The format of series [1] is physicochemical. An excerpt:
Larger proteins can also form complexes with SDS. […] At higher SDS concentrations, hGH redissolves, presumably via micellar solubilization. […] Other proteins can also form complexes with SDS. Bovine pancreatic trypsin inhibitor (BPTI) is a small basic protein (MW 5900) with a well defined and stable structure (Wlodawer et. al. (1984) J. Mol. Biol. 180:301-329, and (1987) J. Mol. Biol. 193:145-156). […] In TMP, the globular structure is compromised, as determined by CD spectroscopy. Apparently, TMP is a strong enough solvent to displace water from the hydration sphere and destabilize the structure of BPTI. This mechanism of protein denaturation has been described in detail by Arakawa and […] (1982) Biochemistry 21:6536-6544. and (1982) Biochemistry 21:6545-6552. Stoichiometric addition of SDS to human serum albumin (HSA) (MW 68 kD) produces precipitates as a hydrophobic ion pair complex is formed.

Series [2] is described as follows: Apparent partition coefficient water/1-octanol upon SDS addition. As to conditions: UV-visible absorption spectroscopy.

On to “SDS-HSA complex: hydrophobic ion pair complex of human serum albumin with SDS”, for which, in series [1], the “solubility in NMP” value is on record as “greater than 1 mg/ml”. Moreover, the “partitioning into 1-octanol” value in series [2] is on record as “could not be detected”.

As for HSA: human serum albumin (MW 68 kD), the “solubility in NMP” value in series [1] is recorded as “less than 0.03 mg/ml”.

For the origin of these results see patent US6613358B2, “Sustained-release composition including amorphous polymer” (priority 1998, dated 2003).
